From ChEMBL document CHEMBL4673226, “Development of 5-Aminopyrazole-4-carboxamide-based Bumped-Kinase Inhibitors for Cryptosporidiosis Therapy” (J Med Chem, 2019)

Chains of the proteins cited; added tags and fusions are not shown. Lines headed by an entry give the natural chain unless they say otherwise; changes in a name come on top.
UniProt Q12809: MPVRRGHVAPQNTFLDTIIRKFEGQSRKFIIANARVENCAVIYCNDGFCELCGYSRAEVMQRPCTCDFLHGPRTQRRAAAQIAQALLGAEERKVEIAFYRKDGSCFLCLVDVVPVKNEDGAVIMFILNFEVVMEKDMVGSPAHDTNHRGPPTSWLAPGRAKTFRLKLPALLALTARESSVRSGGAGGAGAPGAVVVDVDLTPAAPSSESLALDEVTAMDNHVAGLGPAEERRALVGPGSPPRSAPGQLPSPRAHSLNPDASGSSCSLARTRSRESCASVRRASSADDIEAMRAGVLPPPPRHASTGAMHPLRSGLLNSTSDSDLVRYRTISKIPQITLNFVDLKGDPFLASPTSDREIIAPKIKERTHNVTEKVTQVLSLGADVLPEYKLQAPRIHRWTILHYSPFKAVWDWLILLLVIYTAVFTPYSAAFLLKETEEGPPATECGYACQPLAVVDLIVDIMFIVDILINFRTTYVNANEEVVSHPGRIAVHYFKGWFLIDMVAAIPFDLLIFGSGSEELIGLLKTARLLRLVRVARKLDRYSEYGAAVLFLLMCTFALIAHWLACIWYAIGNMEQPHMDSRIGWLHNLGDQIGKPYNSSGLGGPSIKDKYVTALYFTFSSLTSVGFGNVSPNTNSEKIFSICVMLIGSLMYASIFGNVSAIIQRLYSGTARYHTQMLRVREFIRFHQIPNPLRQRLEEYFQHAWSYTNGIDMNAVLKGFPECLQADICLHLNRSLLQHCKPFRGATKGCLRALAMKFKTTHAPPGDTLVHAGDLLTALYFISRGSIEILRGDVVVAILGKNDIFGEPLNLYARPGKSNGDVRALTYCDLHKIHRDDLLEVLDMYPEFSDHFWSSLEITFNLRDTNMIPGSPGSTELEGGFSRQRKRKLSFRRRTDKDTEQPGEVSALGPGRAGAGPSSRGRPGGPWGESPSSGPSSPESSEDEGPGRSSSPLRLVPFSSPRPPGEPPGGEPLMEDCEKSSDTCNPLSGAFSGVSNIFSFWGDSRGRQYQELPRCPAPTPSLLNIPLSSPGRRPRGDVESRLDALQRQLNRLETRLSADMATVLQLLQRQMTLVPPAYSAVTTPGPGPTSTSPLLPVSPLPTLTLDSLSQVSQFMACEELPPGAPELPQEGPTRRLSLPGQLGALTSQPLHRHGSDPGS
UniProt P12931: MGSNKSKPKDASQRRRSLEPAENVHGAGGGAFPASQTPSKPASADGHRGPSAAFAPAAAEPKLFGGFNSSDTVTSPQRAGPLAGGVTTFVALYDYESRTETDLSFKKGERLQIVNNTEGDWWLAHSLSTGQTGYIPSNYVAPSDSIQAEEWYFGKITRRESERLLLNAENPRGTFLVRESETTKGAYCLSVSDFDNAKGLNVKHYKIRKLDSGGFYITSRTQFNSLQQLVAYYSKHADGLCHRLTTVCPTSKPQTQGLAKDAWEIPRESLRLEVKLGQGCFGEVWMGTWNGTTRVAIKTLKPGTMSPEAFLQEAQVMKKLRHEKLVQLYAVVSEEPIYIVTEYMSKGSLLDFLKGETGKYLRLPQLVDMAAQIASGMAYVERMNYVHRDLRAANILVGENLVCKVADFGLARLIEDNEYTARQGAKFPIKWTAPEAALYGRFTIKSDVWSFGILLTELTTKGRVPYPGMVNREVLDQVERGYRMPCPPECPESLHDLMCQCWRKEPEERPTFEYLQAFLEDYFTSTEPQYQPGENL

Legend:
[1] = target: T1, Voltage-gated inwardly rectifying potassium channel KCNH2 (Homo sapiens, UniProt Q12809)
[2] = target: Proto-oncogene tyrosine-protein kinase Src (Homo sapiens, UniProt P12931); format: ADME
[3] = buffer, pH 2
[4] = buffer, pH 6.5
in vivo [5] = conditions: mouse, po, 25 mg/kg
in vivo [6] = conditions: mouse, po, 25 mg/kg; remark: listed apart in the source
[7] = human, plasma
in vivo [8] = conditions: mouse, po, 25 mg/kg; remark: listed apart in the source
[9] = mouse, plasma
[10] = target: T1, Voltage-gated inwardly rectifying potassium channel KCNH2; remark: listed apart in the source
in vivo [11] = conditions: mouse, po, 10 mg/kg
in vivo [12] = conditions: mouse, po, 10 mg/kg; remark: listed apart in the source
in vivo [13] = conditions: mouse, po, 10 mg/kg; remark: listed apart in the source

Row | Compound | IC50 [1] | half-life (in vivo [5]) | Cmax (in vivo [6]) | Tmax (in vivo [8]) | other results
1 | CC(C)(CO)n1nc(-c2cnc3cc(OC4CC4)ccc3c2)c(C(N)=O)c1N | > 30 µM | – | – | – | –
2 | CCOc1ccc2cc(-c3nn(C(C)CCO)c(N)c3C(N)=O)ccc2n1 (stereo not drawn) | > 30 µM | – | – | – | IC50 [2]: 5.4 µM
3 | CCOc1ccc2cc(-c3nn(CC(C)(C)CO)c(N)c3C(N)=O)cnc2c1 | > 30 µM | – | – | – | –
4 | CCOc1ccc2cc(-c3nn(C(C)(C)CCO)c(N)c3C(N)=O)ccc2n1 | > 30 µM | 6.71 h | 2.8 µM | – | IC50 [2]: > 10 µM; solubility [3]: > 50 µM; solubility [4]: > 50 µM
5 | CCOc1ccc2cc(-c3nn(C(C)(C)CO)c(N)c3C(N)=O)ccc2c1 | > 30 µM | 3.52 h | 24 µM | 1.5 h | PPB [7]: 97%; PPB [9]: 91%
6 | CCOc1ccc2cc(-c3nn(C(C)CCO)c(N)c3C(N)=O)ccc2c1 (stereo not drawn) | > 30 µM | 5.92 h | 10 µM | 0.667 h | –
7 | C#CCOc1ccc2cc(-c3nn(C(C)(C)C)c(N)c3C(N)=O)ccc2c1 | – | 4.83 h | 16.9 µM | 2.67 h | IC50 [2]: > 10 µM; IC50 [10]: > 22.6 µM; solubility [3]: 17.6 µM (≈ 6.38 µg/mL); PPB [7]: 99%; solubility [4]: < 10 µM; PPB [9]: 88%
8 | CC(C)(CO)n1nc(-c2ccc3nc(OC4CC4)ccc3c2)c(C(N)=O)c1N | > 30 µM | 0.833 h | 13.8 µM | 1.33 h | IC50 [2]: > 10 µM; solubility [3]: > 100 µM; PPB [7]: 95%; solubility [4]: > 100 µM; PPB [9]: 85%
9 | CCOc1ccc2cc(-c3nn(CC(C)(C)CO)c(N)c3C(N)=O)ccc2c1 | 30 µM | 3.45 h | 3.1 µM | 0.833 h | IC50 [10]: > 8.6 µM
10 | CCOc1ccc2cc(-c3nn(C(C)(C)CO)c(N)c3C(N)=O)ccc2n1 | > 30 µM | 2.73 h | 38.6 µM | 1.17 h | IC50 [10]: > 21.5 µM
11 | CCOc1ccc2cc(-c3nn(CC4CC4)c(N)c3C(N)=O)ccc2c1 | 15.7 µM | 12.6 h | 4.2 µM | – | solubility [3]: 50.6 µM (≈ 17.7 µg/mL); solubility [4]: 7.4 µM (≈ 2.59 µg/mL)
12 | CC(C)(C)n1nc(-c2ccc3cc(OC4CC4)ccc3c2)c(C(N)=O)c1N | 27 µM | – | – | – | half-life (in vivo [11]): 8.03 h; IC50 [10]: > 17 µM; Cmax (in vivo [12]): 12.9 µM; Tmax (in vivo [13]): 3 h
13 | CC(CCO)n1nc(-c2ccc3cc(OC4CC4)ccc3c2)c(C(N)=O)c1N (stereo not drawn) | > 30 µM | 2.24 h | 15.4 µM | 0.5 h | –
14 | CCOc1ccc2cc(-c3nn(C(C)(C)CCO)c(N)c3C(N)=O)ccc2c1 | – | 0.352 h | – | 0.5 h | –
15 | CCOc1ccc2cc(-c3nn(C(C)(C)CCO)c(N)c3C(N)=O)cnc2c1 | > 30 µM | – | – | – | –
16 | CC(C)(CCO)n1nc(-c2cnc3cc(OC4CC4)ccc3c2)c(C(N)=O)c1N | > 30 µM | – | – | – | –
17 | CC(C)(CO)n1nc(-c2ccc3cc(OC4CC4)ccc3c2)c(C(N)=O)c1N | 30 µM | 2.67 h | 79.2 µM | 3 h | IC50 [10]: > 30 µM
18 | CCOc1ccc2cc(-c3nn(CC(C)(C)CO)c(N)c3C(N)=O)ccc2n1 | – | – | – | – | half-life (in vivo [11]): 0.105 h; solubility [3]: > 50 µM; solubility [4]: > 100 µM; Tmax (in vivo [13]): 0.833 h
19 | CCOc1ccc2cc(-c3nn(C(C)(C)CO)c(N)c3C(N)=O)cnc2c1 | > 30 µM | 2.29 h | 133 µM | 1.33 h | –
20 | CCOc1ccc2cc(-c3nn(C(C)CCO)c(N)c3C(N)=O)cnc2c1 (stereo not drawn) | > 30 µM | – | – | – | half-life (in vivo [11]): 2 h; Cmax (in vivo [12]): 2.7 µM; Tmax (in vivo [13]): 0.5 h

Converted amounts (≈) assume the structure as drawn.
